Experimental data as given in PubChem BioAssay AID690 (Sanford-Burnham Center for Chemical Genomics, 2007).
This is a selection; strong and weak results do not stand in their true shares. Results with a measured potency or affinity are listed apart. Calls of active or inactive are those of the source. No rule for the calls is given here.

By UniProt entry, the sequences of proteins in these tests, tags left out.
UniProt P05187, whole entry: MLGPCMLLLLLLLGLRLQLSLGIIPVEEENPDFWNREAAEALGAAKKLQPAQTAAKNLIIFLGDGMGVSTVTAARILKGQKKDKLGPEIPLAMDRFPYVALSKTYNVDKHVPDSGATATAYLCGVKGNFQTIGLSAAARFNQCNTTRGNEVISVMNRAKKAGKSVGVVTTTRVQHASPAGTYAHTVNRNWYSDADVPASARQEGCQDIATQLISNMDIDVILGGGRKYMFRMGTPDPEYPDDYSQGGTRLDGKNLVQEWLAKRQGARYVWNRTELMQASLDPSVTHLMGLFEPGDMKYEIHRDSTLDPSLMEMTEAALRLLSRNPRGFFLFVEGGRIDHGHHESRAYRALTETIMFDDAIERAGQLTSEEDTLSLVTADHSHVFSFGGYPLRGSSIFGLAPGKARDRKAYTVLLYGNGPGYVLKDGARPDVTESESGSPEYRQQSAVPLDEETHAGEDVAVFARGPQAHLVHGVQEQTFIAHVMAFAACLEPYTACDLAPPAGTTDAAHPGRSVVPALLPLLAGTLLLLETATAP

molecular target: Alkaline phosphatase, placental type (Homo sapiens) (UniProt P05187); assay: inhibition of human placental alkaline phosphatase – biochemical, luminescence, HTS (AID 690); details: purified PLAP, luminescent substrate; at 20 µM; hits give high values

**Q.** Which inhibition does the source give for `CP(=O)(Nc1ccc(Cl)cc1)Oc1ccc(F)cc1` (configuration not stated) here?
**A.** inactive: -14.8%

**Q.** Which inhibition does the source give for `CC(C)(C)c1ccc(OP(C)(=O)O)cc1` here?
**A.** inactive: -27.7%

**Q.** For `CCN(CC)CC(O)COC(=O)C(O)(c1ccccc1)C1CCCCC1` (configuration not stated), which inhibition is on record?
**A.** inactive: -26.3%

**Q.** With `CP(=O)(Oc1ccccc1)N1CCOC1=O` (configuration not stated) as the compound, how does the inhibition read?
**A.** inactive: 13%

**Q.** Which inhibition does the source give for `COc1ccccc1OP(C)(=O)Nc1c(C)n(C)n(-c2ccccc2)c1=O` (configuration not stated) here?
**A.** inactive: 6.2%

**Q.** How did the inhibition turn out when `CP(=O)(OC12CC3CC(CC(C3)C1)C2)OC12CC3CC(CC(C3)C1)C2` was run?
**A.** inactive: -55.5%

**Q.** `Cc1nc2ccc3ccccc3c2o1.O=[N+]([O-])c1cc([N+](=O)[O-])c(O)c([N+](=O)[O-])c1` was tested. Which inhibition did it give?
**A.** inactive: 0.5%

**Q.** For `COc1ccccc1OP(C)(=O)Nc1ccc(C)c(C)c1` (configuration not stated), which inhibition is on record?
**A.** inactive: -4.6%

**Q.** Which inhibition does the source give for `Cc1c(NP(C)(=O)Oc2ccc(C(C)C)cc2)c(=O)n(-c2ccccc2)n1C` (configuration not stated) here?
**A.** inactive: -43.5%

**Q.** `CCc1ccc(OP(C)(=O)O)cc1` was tested. Which inhibition did it give?
**A.** inactive: -65.6%

**Q.** With `COc1ccccc1OP(C)(=O)Nc1ccc(C)cc1C` (configuration not stated) as the compound, how does the inhibition read?
**A.** inactive: 2.4%

**Q.** How did the inhibition turn out when `CP(=O)(Nc1ccccn1)Oc1ccccc1` (configuration not stated) was run?
**A.** inactive: 21.9%

**Q.** `CN(C)CCOC(=O)C(O)(c1ccccc1)C1CCCC1` (configuration not stated) was tested. Which inhibition did it give?
**A.** inactive: -6.1%

**Q.** `COc1ccc(OP(C)(=O)Nc2ccccn2)cc1` (configuration not stated) was tested. Which inhibition did it give?
**A.** inactive: 9.9%

**Q.** How did the inhibition turn out when `CP(=O)(Nc1ccccc1F)Oc1ccccc1` (configuration not stated) was run?
**A.** inactive: 16%

**Q.** Which inhibition does the source give for `CP(=O)(Nc1ccccc1)Oc1ccc(F)cc1` (configuration not stated) here?
**A.** inactive: -12.5%

**Q.** `COc1ccc(OP(C)(=O)Nc2cccc(Br)c2)cc1` (configuration not stated) was tested. Which inhibition did it give?
**A.** inactive: 9.3%

**Q.** For `CN(C)CCOC(=O)C(O)(c1ccccc1)C1CCCCC1` (configuration not stated), which inhibition is on record?
**A.** inactive: -0.7%

**Q.** With `Cc1ccccc1NP(C)(=O)Nc1ccccc1C` as the compound, how does the inhibition read?
**A.** inactive: 9.3%

**Q.** With `CCOP(C)(=S)SCC(=O)NC(C)(CC)C(=O)O` (configuration not stated) as the compound, how does the inhibition read?
**A.** inactive: -9.7%

**Q.** Which inhibition does the source give for `Cc1nc2ccc3ccccc3c2s1.O=[N+]([O-])c1cc([N+](=O)[O-])c(O)c([N+](=O)[O-])c1` here?
**A.** inactive: 18.5%

**Q.** How did the inhibition turn out when `COc1ccccc1OP(C)(=O)Nc1c(C)cccc1C` (configuration not stated) was run?
**A.** inactive: 15.4%

**Q.** For `Cc1cc(C)cc(OP(C)(=O)Nc2ccccn2)c1` (configuration not stated), which inhibition is on record?
**A.** inactive: 28.7%

**Q.** For `Cc1ccc(C)c(NP(C)(=O)Oc2ccccc2)c1` (configuration not stated), which inhibition is on record?
**A.** inactive: -5.5%

**Q.** With `Cc1cc(C)cc(OP(C)(=O)Nc2ccc(C)cc2C)c1` (configuration not stated) as the compound, how does the inhibition read?
**A.** inactive: -21.1%

**Q.** Which inhibition does the source give for `Cc1ccc(NP(C)(=O)Oc2ccccc2)c(C)c1` (configuration not stated) here?
**A.** inactive: -37%

**Q.** For `COc1ccccc1OP(C)(=O)Nc1ccc(C)cc1` (configuration not stated), which inhibition is on record?
**A.** inactive: 9.2%

**Q.** `COc1ccc(OP(C)(=O)Nc2cccc(F)c2)cc1` (configuration not stated) was tested. Which inhibition did it give?
**A.** inactive: -8.9%

**Q.** With `CP(=S)(Nn1cnnc1)Oc1ccccc1` (configuration not stated) as the compound, how does the inhibition read?
**A.** inactive: 27%

**Q.** Which inhibition does the source give for `CCOP(C)(=S)SCC(=O)NC(C)C(=O)O` (configuration not stated) here?
**A.** inactive: -20.6%

**Q.** `CP(=O)(Nc1ccccn1)Oc1ccc(Cl)cc1` (configuration not stated) was tested. Which inhibition did it give?
**A.** inactive: 2.4%

**Q.** How did the inhibition turn out when `CP(=O)(NC(=O)Nc1ccccc1)Oc1ccccc1` (configuration not stated) was run?
**A.** inactive: -11.4%
